Source: patent US9952217B2, “Anti-HBc quantitative detection method and uses thereof in monitoring and controlling disease progression of chronic hepatitis B patient and in predicting therapeutic effect” (priority 2012, dated 2018)

System: hepatitis B virus
Experiment: Peginterferon alpha-2a therapy of HBeAg positive chronic hepatitis B patients (Cohort B)
Assay type: in vivo, human
Description: Patient cohort B: 48 HBeAg positive patients, all patients accepted therapy of peginterferon alpha-2a (long-acting interferon α-2a, 180 μg/week), for 24 weeks in total, and were follow-up visited for 24 weeks after stop of therapy.
The above patients before therapy all met the criteria of disease adaptable for therapy as recommended by the Guide of Clinical Management of Chronic Hepatitis B of APASL: HBsAg was positive for consecutive 1 year or more, HBeAg was positive and anti-HBe was negative, serum ALT level was higher than 2 times of ULN; the patients were chosen to exclude possibility of having accompanied infection of hepatitis C virus (HCV), human immunodeficiency virus (HIV), hepatitis D virus (HDV), hepatitis E virus (HEV), and have no clinical medicine evidence of having accompanied autoimmune or metabolic liver diseases.
It was performed according to the method described in section 4.2 of Example 4.
It was performed according to the method described in section 4.3 of Example 4.
Main therapeutic end was defined when HBeAg seroconversion occurred at follow-up visit end.
All statistic methods were performed according to those described in Example 4.

## peginterferon alpha-2a [long-acting interferon]
All 48 patients, 180 μg/week for 24 weeks, follow-up 24 weeks after stop
  therapeutic effective rate (HBeAg seroconversion at follow-up visit end): 47.9%
Baseline anti-HBc 9000-29000 IU/ml (n=10)
  response rate (HBeAg seroconversion after therapy): 60.0%
Baseline anti-HBc ≥29000 IU/ml (n=15)
  response rate (HBeAg seroconversion after therapy): 66.7%
Cutoff 9000 IU/ml baseline anti-HBc
  ratio of occurrence rates (Risk Ratio, RR) of HBeAg seroconversion between high and low anti-HBc groups: 2.10
Patients with baseline anti-HBc greater than 9000 IU/ml (n=25)
  effective rate (HBeAg seroconversion at follow-up visit end): 64.0%
Patients with baseline anti-HBc less than 9000 IU/ml (n=23)
  effective rate (HBeAg seroconversion at follow-up visit end): 30.4%
